The source of these data is paper PMC3124622 (Biochemical and biophysical research communications, 2011).

By Ki is commonly meant a dissociation constant, usually derived from enzyme kinetics or from competition with a known ligand. A low value points to a stronger hold on the target.

Bounds are passed on as bounds.

Data set [1] concerns the target E. coli TGT Wild-Type (Escherichia coli, UniProt P0A847). As to the kind of experiment: Pteridine inhibition of guanine incorporation. Type of data set: biochemical. The settings on record: wild-type enzyme; KI was above the biopterin solubility limit.
In data set [2] the target is E. coli TGT C145V/T146V (Escherichia coli, UniProt P0A847, C145V/T146V). Kind of data set: Pteridine inhibition of guanine incorporation. The following applies: C145V/T146V mutant; vs guanine; 20 μM tRNA, pH 7.3. Type of data set: biochemical.
For data set [3], the target named is E. coli TGT V217G (Escherichia coli, UniProt P0A847, V217G). As to the kind of experiment: Pteridine inhibition of guanine incorporation. In kind it is biochemical. The following applies: V217G mutant; vs guanine; 20 μM tRNA, pH 7.3.
Data set [4] addresses E. coli TGT C145V/T146V/V217G (Escherichia coli, UniProt P0A847, C145V/T146V/V217G). Kind of data set: Pteridine inhibition of guanine incorporation. Type of data set: biochemical. The following applies: C145V/T146V/V217G (triple) mutant; vs guanine; 20 μM tRNA, pH 7.3.
Data set [5] deals with E. coli TGT C145V/T146V/P147N/V217G (Escherichia coli, UniProt P0A847, C145V/P147N/T146V/V217G). As to the kind of experiment: Pteridine inhibition of guanine incorporation. Type of data set: biochemical. The settings on record: C145V/T146V/P147N/V217G (quadruple) mutant; vs guanine; 20 μM tRNA, pH 7.3.
Data set [6] in a line: Solubility limit of biopterin. Type of data set: physicochemical. The settings on record: in TGT inhibition assay.

Regarding biopterin, the Ki in data set [1] was more than 3000 µM; in data set [2], 550 µM; in data set [3] it was 550 µM; in data set [4], 160 µM; in data set [5] it was 1050 µM. Besides, the “maximum concentration dictated by solubility” value in data set [6] came to 3000 µM.
